Where only a bound is given, the exact number is not on record here.

By UniProt entry, the sequences of proteins in these tests, tags left out.
UniProt Q96LB1, whole entry: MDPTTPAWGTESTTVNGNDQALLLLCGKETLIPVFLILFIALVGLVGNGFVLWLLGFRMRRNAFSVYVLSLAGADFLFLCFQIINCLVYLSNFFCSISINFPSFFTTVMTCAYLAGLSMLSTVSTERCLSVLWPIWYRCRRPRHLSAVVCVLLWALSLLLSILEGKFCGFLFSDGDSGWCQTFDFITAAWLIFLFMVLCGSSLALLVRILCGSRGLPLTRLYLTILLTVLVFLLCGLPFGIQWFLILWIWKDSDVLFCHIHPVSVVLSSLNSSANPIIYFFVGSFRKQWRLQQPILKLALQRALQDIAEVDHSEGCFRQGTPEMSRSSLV

The target of the assay is MRGPRX2 (Homo sapiens, UniProt Q96LB1). Kind of assay: MRGPRX2 reporter cell assay (NFAT-RE luciferase, Substance P stimulation). It counts as cell-based. The following applies: U2OS cells stably transfected with MRGPRX2 and NFAT-RE luciferase reporter; Substance P at EC80; class symbols. The protocol:
MRGPRX2 Reporter Cell Assays U2OS cells (ATCC, Manassas, VA) were stably transfected with MRGPRX2 expression clones (GeneCopoeia, Rockville, MD) and the pGL4.30 [luc2P/NFAT-RE/Hygro] reporter plasmid (Promega, Madison, WI). Clonal cells were maintained in Growth Media (McCoy's 5A, 10% FBS, 495 μg/ml hygromycin, 2 μg/ml puromycin, 100 units/ml penicillin, and 100 ug/ml streptomycin). The day before assay, cells were plated to white 384-well microplates at 3000 (MRGPRX2) cells/well in 10 ul Assay Media (McCoy's 5A, 2% charcoal dextran stripped FBS, 100 units/ml penicillin, and 100 ug/ml streptomycin) (Gibco, Thermo Fisher) and allowed to adhere overnight. The following day, serially diluted compound stocks were added directly to the cells (final DMSO concentration of 0.5%) and pre-incubated for 30 minutes at 37° C., 5% CO2. The final concentration of Substance P (Tocris, Minneapolis, MN, or PEPTIDE INSTITUTE, Osaka, Japan) corresponding to EC80 was added to stimulate the (MRGPRX2) cells. Cells were returned to the incubator for 6 hrs, after which 5 ul of ONE-GLO substrate (Promega) was added. Luminescence was read within 15 minutes (BioTek, Winooski, VT or infinite M1000Pro, Tecan Japan, Kanagawa, Japan). Percent inhibition for each test compound was calculated using the formula: […] where: • A=the luminescence count of the “test compound” well • B=the median luminescence count of the “Vehicle (0.5% DMSO)” wells • C═the median luminescence count of the “Vehicle (0.5% DMSO)+5 uM of substance P” wells The mean percent inhibition of each concentration of “test compound” was used to generate dose-response curves. IC50 values were calculated using a four-parameter logistic fit to the data using GraphPad Prism software. • +++: […]
A general note: Reporter assays use an easily measured gene product as a stand-in for the process of interest.
As a reminder, the IC50 is the point on the concentration scale where inhibition reaches its midpoint. The low end stands for inhibition by little substance, the high end for a need for much substance. With `COc1ccc(F)c(-c2c(-c3cc(F)ccc3O)[nH]c3ncccc23)c1`, the IC50 is less than 10 nM.
The compound `COc1ccc(F)cc1-c1[nH]c2ncccc2c1-c1ccccc1OC(F)(F)F` registered an IC50 of less than 10 nM.
Regarding `FC(F)c1nn2c(c1-c1[nH]c3ncccc3c1-c1ccsc1Cl)OCCC2`, the half-inhibitory concentration (IC50) was less than 10 nM.
Take `Cc1ccc(F)c(-c2c(-c3c(O)cccc3F)[nH]c3ncccc23)c1`: the IC50 is less than 10 nM.
In the case of `Cn1cc(-c2[nH]c3nccc(F)c3c2-c2ccccc2C#N)c(C(F)F)n1` it was less than 10 nM.

The record behind these values is patent publication US20250326772A1, “MRGPRX2 ANTAGONISTS, PHARMACEUTICAL COMPOSITION INCLUDING MRGPRX2 ANTAGONIST, AND METHOD OF TREATING MRGPRX2-MEDIATED DISEASE OR DISORDER” (KYORIN PHARMACEUTICAL CO., LTD., priority 2024, published 2025).
